## Yeast mating assay B: variants of the scFv Ab-14

Data: MIT Lincoln Laboratory AlphaSeq set, Li et al. 2023, doi:10.1038/s41467-023-39022-2, as distributed in FLAb.

Target peptide (SARS-CoV-2 spike, HR2 region): PDVDLGDISGINAS

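The starting antibody came from a phage panning campaign against this peptide. These sequences belong to a second round, designed from the earlier measurements on random variants of the parent. Several design methods are mixed in this list. The assay is AlphaSeq: two haploid yeast populations carry antibody and antigen on their surface. Binding brings cells together so that they mate, and sequencing counts the barcode pairs among the diploids. The ratio of observed to expected reads was calibrated, replicate by replicate, on BCL2-family standards whose Kd was known from biolayer interferometry. Each pool was mated in six replicate cultures.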

Parent scFv Ab-14: VH joined to VL by the linker GGGGSGGGGSGGGGS. Changes lie in the heavy chain CDRs alone.
VH: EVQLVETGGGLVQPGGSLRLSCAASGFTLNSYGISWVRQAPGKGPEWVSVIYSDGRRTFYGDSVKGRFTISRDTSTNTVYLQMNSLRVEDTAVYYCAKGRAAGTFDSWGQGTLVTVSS
VL: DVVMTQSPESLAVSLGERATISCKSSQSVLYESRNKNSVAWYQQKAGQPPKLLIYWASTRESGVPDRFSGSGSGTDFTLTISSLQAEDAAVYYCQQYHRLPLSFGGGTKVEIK

Variants are written as CDR1, CDR2 and CDR3 of the heavy chain (limits as in the source). Parent: GFTLNSYGIS, VIYSDGRRTFYGDSVK, GRAAGTFDS. Values are log10 of the apparent Kd in nM; lower means stronger binding. Replicates are averaged; those with no signal do not enter the mean. A pair that was not seen in any replicate is written "nd"; this usually means weak binding, but a binder can also be missed. Order: sorted from the lowest average up, undetected variants last. Of ten entries with the parent sequence, four were seen in most replicates (averages 0.34 to 2.37), three in one and three in none, so single entries are noisy. The authors averaged sequences with at least three values out of six and counted those with two or fewer as poor binders. The range of this assay differs from that of the first round, and the authors advise against merging the two. As a blank, each scFv also met three strains without target: over all heavy chain designs, 1% of these pairings were detected, typically at 2.08 and seldom below 0.84. Also given: how often the same scFv was detected with the empty control strains.

CDR-H1	CDR-H2	CDR-H3	log10 Kd (nM), mean	seen in	control signals
GFDLNEYGIS	VIYADGQRTFYSDSVK	GQTAGTFDV	-0.85	6/6	1/18
GFDLNEYGIS	VIYADGMRTAYADKVK	GTNAGTFDV	-0.75	6/6	0/18
GFDLNEYGIS	VIYADGVRKFYADSVK	GNVAGTFDV	-0.68	6/6	0/18
GFNLNSYGIS	VIYADGRRTFYADSVK	GRAAGTFDS	-0.67	6/6	0/18
GFDLNEYGIS	VIYADGMRTVYADSVK	GANAGTFDI	-0.63	6/6	1/18
GFTLDEYGIS	VIYADGRRTFYTDSVK	GQNAGTFDV	-0.61	6/6	0/18
GFDLNEYGIS	VIYADGRRTYYADDVK	GENAGTFDV	-0.60	6/6	0/18
GFDLDEYGIS	VIYADGMRTAYSDSVK	GEVAGTFDV	-0.58	6/6	0/18
GFDLDEYGIS	VIYADGMRTAYADSVK	GEIAGTFDV	-0.36	6/6	0/18
GFDLNEYGIS	VIYADGMRTAYQDSVK	GNVAGTFDT	-0.30	6/6	0/18
GFNLNEYGIS	VIYADGRRTFYADSVK	GNVAGTFDV	-0.27	4/6	0/18
GFDLNEYGIS	VIYADGSRTFYADSVK	GNQAGTFDV	-0.22	6/6	0/18
GFDLNEYGIS	VIYADGMRTAYADSVK	GEVAGTFDN	-0.17	6/6	0/18
GFGLNSYGIS	VIYADGRRTFYGDSVK	GQAAGTFDL	-0.10	6/6	0/18
GFDLDEYGIS	VIYADGQRTFYADSVK	GEAAGTFDV	-0.09	6/6	0/18
GFDLDEYGIS	VIYADGQRTFYADSVK	GSNAGTFDM	-0.02	6/6	0/18
GFELNEYGIS	VIYSDGRRTFYGDAVK	GRNAGTFDS	0.06	6/6	0/18
GFTLNSYGIS	VIYSDGRRMFYSDSVK	GREAGTFDS	0.09	6/6	1/18
GFDLNSYGIS	VIYSDGRRTFYADPVK	GRTAGTFDS	0.14	6/6	0/18
GFDLNEYGIS	VIYADGRRTAYIDSVK	GNQAGTFDI	0.27	6/6	0/18
GFTLNQYGIS	VIYSDGRRTAYSDSVK	GRAAGTFDS	0.34	6/6	0/18
GFSLNSYGIS	VIYSDGRRTFYSDSVK	GRLAGTFDS	0.36	6/6	0/18
GFNLNEYGIS	VIYADGRRTFYADSVK	GEQAGTFDM	0.45	5/6	0/18
GFTLNSYGIS	VIYSDGRRTFYQDSVK	GREAGTFDS	0.61	5/6	1/18
KFTLNEYGSS	VIYSDGYRTFYQDSVK	GWAAGTFDS	0.62	6/6	0/18
GFTLNSYGIS	VIYSDGQRTFYADSVK	GRVAGTFDS	0.72	6/6	0/18
GFGLNSYGIS	VIYSDGRRTFYGDSVK	GQTAGTFDS	0.90	6/6	0/18
GFNLNSYGIS	VIYSDGKRTFYGDSVK	GVAAGTFDS	0.91	6/6	0/18
GFSLNSYGIS	VIYSDGRRTFYGDSVK	GRLAGTFDS	1.33	6/6	1/18
GFTLNSYGIS	VIYSDGKRTFYIDSVK	GEAAGTFDS	1.35	3/6	0/18
GFTLDSVGVS	VIYSDGIRTFYGDSVK	GRAAGTALS	2.00	2/6	0/18
GFDIEEYGIS	VIYADGSRTAYSDSVK	SGYTFNMDL	2.19	1/6	0/18
GFDLEEYGIS	VIYADGMRTAYADNVK	GNVAGTFDV	3.14	2/6	1/18
GFTLNSYGIS	VIYSDGRRTFYGDSVK	GRAAGTFLQ	nd	0/6	0/18
GFKLDEYGIS	VIYADGHRVAYSQKVK	GDNVGNMFE	nd	0/6	0/18
GFGLGEYGIS	VIYADGRRTFYKDDVK	GHGIVAGVD	nd	0/6	0/18
GFQIDEYGIS	VIYADGLRTVYDDAVK	GMDTGLFMI	nd	0/6	0/18
GFTLRSYGIS	VIYSDGRRTWYGDSVR	GHAAGTFDD	nd	0/6	0/18
GYDLVEYGIS	VIYADGIRTVVSNDVK	GNVAGTIFV	nd	0/6	0/18
GFTLESYGIS	VIYSDGRRTFYGDSVK	GRAAGTFTL	nd	0/6	0/18
GFNLLSYGIS	VIYSDGMRTFYGDSVK	GRAAATFIS	nd	0/6	0/18
LFTLTSYGIS	VIYSDGERTFYGDSVK	GEAAGTFDS	nd	0/6	1/18
GFTLNSYGIS	VIYADGRRTFYDDSVK	GREAGDFDG	nd	0/6	0/18
GFDLNSYGIS	VIYSDGRRTFYVDSVK	GRAAGTFNM	nd	0/6	0/18
GQNLDEYGIS	VIYADGQRVSYDDPVK	GEQGGTVMV	nd	0/6	0/18
GMDLGEYGIS	VIYADGERASYTNNFK	GVSAGTFTV	nd	0/6	0/18
GFTLNSYGIS	VIYSDGRRTFYGDSVR	GRAAGTFDS	nd	0/6	0/18